Only some compounds are listed: those with a hit (about 1.9% of all), similar ones and a draw of the others.
PglD inh = inhibitors of Campylobacter jejuni PglD acetyltransferase; 360,000 compounds, 0.098% hits; AID 602405; purified PglD enzyme, DTNB colorimetric CoA detection; inhibition, % at 12.5 µM; in the data active = inhibition above about 16%, passing the limit was not always enough
PDI inh = inhibitors of human protein disulfide isomerase | P07237 | PDI insulin aggregation turbidity, A650, 90 min | inhibition, % at 10 µM | 350,000 compounds, 0.052% hits | AID 588391;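 active = mean inhibition across replicates of 30% or more, whatever share of single replicates reach that level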
ERp5 block = ERp5 (human) disulfide isomerase inhibition. ERp5 insulin aggregation, absorbance 650 nm, 90 min. inhibition, % at 9.99 µM. 350,000 compounds, 0.05% hits. AID 651711;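 active = mean replicate inhibition above about 25%, with every replicate also reaching it, limit read from the data, passing the limit was not always enough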
UUG fidelity = modulators of start codon recognition fidelity in yeast. S. cerevisiae UUG-firefly luciferase reporter, luminescence/redox ratio. activity score, % at 18.7 µM. 0.13% of 350,000 active. AID 602363;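 active = replicate mean at a twofold rise or more, about +100% in these data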;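 also: firefly luciferase made from a UUG start codon reports start codon fidelity; reporter light over untreated wells divided by growth signal over untreated wells; some hits fall short of that in this replicate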
ARNT TACC3 PPI = disruptors of human ARNT/TACC3 interaction. 390,000 compounds, 0.66% hits. AID 623870. inhibition, % at 9.99 µM. AlphaScreen His-ARNT PAS-B/GST-TACC3 binding, luminescence; TACC3 fragment carries E629A point mutation. Q9Y6A5;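 active = mean inhibition of replicates at least 50% and at least half of replicates each reaching 50%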;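 note: 0% = complete ARNT plus TACC3 wells and 100% = ARNT alone without TACC3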
FGF22 binding = binders of recombinant human FGF22 by thermal shift; activity (Tm shift, normalised), % at 9.99 µM; Q9HCT0; 340,000 compounds, 1.5% hits; SYPRO orange fluorescence; percent of sucrose octasulfate shift, DMSO zero;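 active = mean Tm shift, scaled 0 neutral to 100 positive control, at about 1.3% or above, every replicate too, limit read from the data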
PglD confirm = blocks Campylobacter jejuni PglD acetyltransferase activity; shares compounds with PglD inh; Purified C. jejuni PglD, DTNB absorbance 412 nm; inhibition, % at 20 µM; 320 tested, under 10 active; AID 743156;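 active = mean inhibition across replicates of at least 20% with every single replicate also at 20% or more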;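 note: initial rate of CoA release by acetyl transfer from AcCoA to the UDP-4-amino sugar; 0% = median of neutral control wells and 100% = median of positive control wells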
An asterisk follows results filed as active; x = no result given.

1: COc1ccc(N2CCN(CC(=O)Nc3ccc(C)cc3)CC2)cc1
2: C[C@@H]1CN([C@@H](C)CO)C(=O)Cc2cc(NC(=O)CCC(F)(F)F)ccc2O[C@@H]1CN(C)Cc1ccc(Oc2ccccc2)cc1
3: CC(C(=O)Nc1ccc(Cl)cc1)N(C)Cc1cccs1 (centres undefined)
4: C[C@@H]1CCCCO[C@@H](CN(C)Cc2ccc(C(=O)O)cc2)[C@@H](C)CN([C@@H](C)CO)C(=O)c2cc(NC(=O)Cc3ccccc3)ccc2O1
5: COCC(=O)N1CC2(C1)CN(Cc1ccccc1Cl)[C@@H](CO)c1c2c2ccc(OC)cc2n1C
6: COc1cc2cc(CCCOC(=O)c3ccc(C(F)(F)F)cc3)oc(=O)c2cc1OC
7: C[C@H](CO)N1C[C@H](C)[C@@H](CN(C)C)OCCCC[C@H](C)Oc2ccc(NS(=O)(=O)c3ccc(Cl)cc3)cc2C1=O
8: C[C@H](CO)N1C[C@H](C)[C@H](CN(C)C(=O)Nc2ccc(C(F)(F)F)cc2)Oc2ccc(NC(=O)Cc3cn(C)c4ccccc34)cc2C1=O

| assay / entry | 1 | 2 | 3 | 4 | 5 | 6 | 7 | 8 |
| --- | --- | --- | --- | --- | --- | --- | --- | --- |
| FGF22 binding | 0 | 0 | 0 | 0 | 0 | 0 | x | 0 |
| ARNT TACC3 PPI | x | 0 | -2 | 16 | x | 2 | 1 | 3 |
| PglD inh | -3 | 3 | 23* | -2 | x | 35* | -2 | -1 |
| ERp5 block | -2 | x | 4 | 6 | -4 | 2 | 0 | 10 |
| PDI inh | -6 | x | 9 | x | x | -5 | x | x |
| UUG fidelity | -5 | 0 | -9 | 17 | x | 6 | -9 | -15 |
| PglD confirm | x | x | -8 | x | x | 6 | x | x |

9: CCNC(=O)C1CC(=O)N(Cc2ccc3c(c2)OCO3)C(=Nc2ccc(OCC)cc2)S1 (centres undefined)
10: Cc1cc2[nH]ncc2cc1NC(N)=S
11: Cc1cc(C)c2c(NC(N)=S)n[nH]c2n1
12: Cc1noc(C)c1NC(=O)N(C)C[C@@H]1Oc2c(NC(=O)c3ccncc3)cccc2C(=O)N([C@H](C)CO)C[C@H]1C
13: NC(=O)CC(NC(=O)c1ccc(Cl)cc1)C(=O)NCCc1ccc(S(N)(=O)=O)cc1 (centres undefined)
14: CC(C)(C)C(=O)C1=C(O)C(=O)N(Cc2ccccc2)C1c1ccccc1F (centres undefined)
15: CO[C@@H]1CN(C)C(=O)c2ccc(NC(=O)C3CC3)cc2OC[C@H](C)N(C(=O)CN(C)C)C[C@@H]1C
16: COc1ccc2c(c1)C(=O)c1ccccc1CO2

| assay / entry | 9 | 10 | 11 | 12 | 13 | 14 | 15 | 16 |
| --- | --- | --- | --- | --- | --- | --- | --- | --- |
| FGF22 binding | x | 0 | 0 | 0 | 0 | 0 | 0 | x |
| ARNT TACC3 PPI | -21 | x | -4 | 1 | 2 | -7 | -3 | x |
| PglD inh | 24* | 7 | 26* | -1 | 23* | 73* | 4 | 40* |
| ERp5 block | x | 1 | 3 | -2 | 3 | 1 | -3 | x |
| PDI inh | -3 | 3 | -5 | x | 3 | -5 | x | 10 |
| UUG fidelity | -20 | -21 | -6 | -4 | 6 | -29 | -9 | -9 |
| PglD confirm | -7 | x | 0 | x | 0 | -11 | x | 2 |

17: O=C(COC(=O)CCc1nc2ccccc2n1-c1ccccc1)Nc1cccc(Cl)c1
18: c1ccc(COc2ncnc3c2ncn3CCCNCc2cccs2)cc1
19: C[C@@H]1CN([C@H](C)CO)C(=O)c2cc(NS(=O)(=O)c3cn(C)cn3)ccc2O[C@@H](C)CCCCO[C@@H]1CN(C)Cc1ccncc1
20: COc1ccc(C(C)(C)C)cc1S(=O)(=O)N1CCC(C(N)=O)CC1
21: COc1ccc(F)cc1S(=O)(=O)N1CCC(C(N)=O)CC1
22: CC(O)(c1cccnc1)c1nc(-c2ccc3ccccc3c2)cs1 (centres undefined)
23: Cc1noc(C)c1NC(=O)Nc1ccc2c(c1)C(=O)N([C@H](C)CO)C[C@@H](C)[C@H](CN(C)CC1CCCCC1)O2
24: Cc1cccc(N(Cc2cc3ccccc3[nH]c2=O)C(=O)c2ccco2)c1C

| assay / entry | 17 | 18 | 19 | 20 | 21 | 22 | 23 | 24 |
| --- | --- | --- | --- | --- | --- | --- | --- | --- |
| FGF22 binding | x | 43* | 1 | x | x | 0 | 0 | x |
| ARNT TACC3 PPI | -4 | x | -5 | 4 | 0 | x | -11 | -6 |
| PglD inh | 29* | 28* | 1 | x | 22* | 22* | 1 | 32* |
| ERp5 block | x | -2 | -2 | x | x | 3 | 1 | x |
| PDI inh | -2 | 1 | x | -5 | -2 | -2 | x | 4 |
| UUG fidelity | -3 | -15 | 6 | x | 2 | -25 | -16 | -11 |
| PglD confirm | -2 | 1 | x | x | -3 | -1 | x | 3 |

25: Cc1ccc(C)c(N(Cc2cc3ccc(C)cc3[nH]c2=O)C(=O)c2ccco2)c1
26: C[C@@H]1CN([C@H](C)CO)C(=O)c2cc(NC(=O)C3CC3)ccc2O[C@H]1CN(C)C(=O)Nc1ccc(F)cc1
27: COc1ccc(CONS(=O)(=O)c2ccc(NC(C)=O)cc2)cc1Cl
28: Cc1ccc(NC(=O)CSc2nnc(CN3CCOCC3)n2C)cc1C
29: CC(C)c1ccc(NC(=O)CSc2nnc(CN3CCOCC3)n2C)cc1
30: COc1ccc(NC(=O)N2CCCc3cc(C)ccc32)c(OC)c1
31: COc1ccc(OC)c(NC(=O)N2CCCc3ccccc32)c1
32: CCN=C1Sc2nc3ccc(OCC)cc3cc2CN1CCOC

| assay / entry | 25 | 26 | 27 | 28 | 29 | 30 | 31 | 32 |
| --- | --- | --- | --- | --- | --- | --- | --- | --- |
| FGF22 binding | 0 | 0 | x | x | 0 | 0 | 0 | x |
| ARNT TACC3 PPI | 1 | 7 | -2 | 2 | x | 5 | 2 | 19 |
| PglD inh | -5 | 8 | 22* | x | 99* | 30* | 5 | 21* |
| ERp5 block | -6 | -2 | 5 | x | -1 | -27 | 5 | x |
| PDI inh | 6 | x | -5 | 3 | 1 | -4 | 3 | 7 |
| UUG fidelity | -14 | x | -6 | x | 1 | -5 | -16 | -20 |
| PglD confirm | x | x | 3 | x | -3 | -8 | x | -1 |

Down the list, as entered above:
Nos. 25–32 in PglD inh: -5, 8, 22*, x, 99*, 30*, 5, 21*

3 entries from above, reformatted:
26) C[C@@H]1CN([C@H](C)CO)C(=O)c2cc(NC(=O)C3CC3)ccc2O[C@H]1CN(C)C(=O)Nc1ccc(F)cc1
  FGF22 binding: 0	ARNT TACC3 PPI: 7	PglD inh: 8	ERp5 block: -2	PDI inh: x	UUG fidelity: x	PglD confirm: x
27) COc1ccc(CONS(=O)(=O)c2ccc(NC(C)=O)cc2)cc1Cl
  FGF22 binding: x	ARNT TACC3 PPI: -2	PglD inh: 22*	ERp5 block: 5	PDI inh: -5	UUG fidelity: -6	PglD confirm: 3
28) Cc1ccc(NC(=O)CSc2nnc(CN3CCOCC3)n2C)cc1C
  FGF22 binding: x	ARNT TACC3 PPI: 2	PglD inh: x	ERp5 block: x	PDI inh: 3	UUG fidelity: x	PglD confirm: x

Next records
33: CC(C)Oc1cc(F)ccc1-c1cc(C(=O)Nc2cccc(C(F)(F)F)c2)[nH]n1
34: O=C(NCCCN1CCN(c2cccc(Cl)c2)CC1)c1ccc(N2CCCC2=O)cc1
35: O=C(NCCCN1CCN(c2cccc(Cl)c2)CC1)c1cccc(N2CCCC2=O)c1
36: O=C(NCc1ccco1)C1CCCCC1
37: O=C(NCc1ccco1)C1OCCc2ccccc21 (centres undefined)
38: CO[C@@H]1CN(C)C(=O)c2cc(NS(=O)(=O)c3ccccc3Cl)ccc2OC[C@H](C)NC[C@@H]1C
39: Cc1ccc(C(=O)COC(=O)CCCC(=O)Nc2cc(C(F)(F)F)ccc2Cl)cc1C
40: Cc1ccc(C(=O)COC(=O)CCC(=O)Nc2ccccc2Cl)cc1[N+](=O)[O-]

| assay / entry | 33 | 34 | 35 | 36 | 37 | 38 | 39 | 40 |
| --- | --- | --- | --- | --- | --- | --- | --- | --- |
| FGF22 binding | 0 | x | x | 0 | x | 0 | x | x |
| ARNT TACC3 PPI | x | 6 | 13 | 5 | -1 | -13 | -1 | -7 |
| PglD inh | 24* | 35* | x | 1 | 25* | -22 | 24* | 4 |
| ERp5 block | -8 | x | x | 1 | x | 12 | x | x |
| PDI inh | 4 | -7 | 13 | 6 | -5 | x | -3 | 8 |
| UUG fidelity | 5 | -5 | x | -16 | -4 | -4 | 2 | -12 |
| PglD confirm | -12 | 6 | x | x | -1 | x | 3 | x |

41: COc1ccc(/C=C(/NC(=O)c2ccccc2)C(=O)N2CCCC2)cc1
42: C/C=C/c1ccc([C@H]2[C@@H](CO)N(C(=O)CC)C23CN(S(=O)(=O)CC)C3)cc1
43: COC(=O)Nc1ccc(S(=O)(=O)Nc2ccccc2F)cc1
44: COC(=O)Nc1ccc(S(=O)(=O)Nc2cc(C(F)(F)F)c[nH]c2=O)cc1

| assay / entry | 41 | 42 | 43 | 44 |
| --- | --- | --- | --- | --- |
| FGF22 binding | 0 | 0 | x | 0 |
| ARNT TACC3 PPI | -1 | x | x | -11 |
| PglD inh | 58* | x | 4 | 31* |
| ERp5 block | -4 | -5 | x | -1 |
| PDI inh | 6 | x | 7 | 7 |
| UUG fidelity | 1 | x | -10 | 2 |
| PglD confirm | -7 | x | x | 1 |
